Experimental data from PubChem BioAssay AID463111 (Johns Hopkins Ion Channel Center, 2010).
The entries are a selection whose mix differs from that of the whole data set. Calls of active or inactive are those of the source.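 The calls were made as follows: active = B-score of the integrated calcium signal more than 4 SD below the library mean, with starting fluorescence not abnormally high; inactive = the rest.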

Assay: enhancers of RGS4 function in calcium signaling – cell-based, HEK293 M3R inducible RGS4, calcium flux, primary screen (AID 463111);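 also: negative B-score means reduced calcium response which marks RGS4 activation or potentiation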
Conditions: HEK293 M3R/inducible RGS4, carbachol calcium flux Fluo4; at 10 µM; hits give low values
Summary of the method: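 Detection: kinetic calcium fluorescence imaging with Fluo4-AM dye, 2 µM / Material: HEK293 cells with stable M3R and inducible RGS4 / Schedule: recording 10 s baseline at 1 Hz, 100 s post-agonist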
For `O=C(OC1CN2CCC1CC2)c1cccc(Cl)c1` (configuration not stated), the B-score was active: -7.87. For `Cc1ccccc1OP(=O)(Nc1ccccn1)Oc1ccccc1C`, the B-score was active: -7.65. With `Cc1c2non([O-])c-2c(C)[n+](=O)[n+]1[O-]` the B-score was active: -7.21. For `CN1CCCC(OC(=O)C(c2ccccc2)c2ccccc2)C1` (configuration not stated), the B-score was active: -10.6. For `O=C(OC1CN2CCC1CC2)C12CC3CC(CC(C3)C1)C2` (configuration not stated), the B-score was active: -9.69. For `O=C(OC1CN2CCC1CC2)c1ccc(Cl)cc1` (configuration not stated), the B-score was active: -9.27. With `CN(C(=O)Cc1ccccc1)[C@@H]1CC[C@]2(CCCO2)C[C@H]1N1CCCC1` the B-score was active: -10.4.
